For assay [1], the target named is T1, Nuclear receptor ROR-gamma (Homo sapiens, UniProt P51449).
In assay [2] the target is T1, Nuclear receptor ROR-gamma. This is another data set of the same source.
The target of assay [3] is T1, Nuclear receptor ROR-gamma. The source holds these as a separate data set.
The target in assay [4] is T1, Nuclear receptor ROR-gamma. The source holds these as a separate data set.

By UniProt entry, the sequences of proteins in these tests, tags left out. Where a name states a change or a piece, a line headed by the entry shows the natural chain unless it says otherwise.
UniProt P51449: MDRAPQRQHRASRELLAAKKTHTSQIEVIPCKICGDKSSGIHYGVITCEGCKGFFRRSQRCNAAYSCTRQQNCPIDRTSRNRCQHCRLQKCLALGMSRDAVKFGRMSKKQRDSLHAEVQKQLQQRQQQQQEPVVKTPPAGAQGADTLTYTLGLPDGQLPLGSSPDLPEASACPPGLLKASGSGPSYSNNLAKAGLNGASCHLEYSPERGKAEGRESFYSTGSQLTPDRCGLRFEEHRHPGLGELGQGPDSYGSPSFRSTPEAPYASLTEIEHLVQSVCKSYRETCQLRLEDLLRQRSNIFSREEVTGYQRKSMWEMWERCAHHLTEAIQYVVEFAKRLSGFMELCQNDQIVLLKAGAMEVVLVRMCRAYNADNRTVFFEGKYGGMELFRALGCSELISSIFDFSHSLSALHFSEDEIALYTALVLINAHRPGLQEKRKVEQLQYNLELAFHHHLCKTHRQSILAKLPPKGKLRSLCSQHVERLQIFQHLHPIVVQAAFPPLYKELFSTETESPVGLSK

In the case of `COc1nc2ccc(C(O)(c3cnc(C)n3C)C3CN(C(C)=O)C3)cc2c(Cl)c1CN1CCC(C(F)(F)F)CC1` (centres undefined), half-maximal inhibition in assay [1] (IC50) was put at 0.313 µM. This counts as sub-micromolar.

As to `COc1nc2ccc(C(O)(c3ccc(C)nc3C)c3cnnn3C)cc2c(Cl)c1C` (centres undefined), the IC50 (commonly the concentration at which inhibition is half-maximal) in assay [2] was 0.327 µM. Compound `COc1nc2ccc(C(O)(c3ccc(C)nc3C)c3cnnn3C)cc2c(Cl)c1OC1CCOCC1` (centres undefined) registered an IC50 in assay [2] of 0.193 µM.

For the compound `COc1nc2ccc(C(O)(c3ccc(C(F)(F)F)nc3)C3CN(C(C)=O)C3)cc2c(Cl)c1CN1CCC(C(F)(F)F)CC1` (centres undefined), the IC50 in assay [1] was found to be 0.05 µM. This counts as double-digit nanomolar. On to `COc1nc2ccc(C(O)(c3cnnn3C)C3CN(C(C)=O)C3)cc2c(Cl)c1CN1CCC(C(F)(F)F)CC1` (centres undefined), for which the affinity in assay [3], expressed as Kd, was 0.0188 µM. In addition, in assay [1], the IC50 came out at 0.166 µM. In the case of `COc1nc2ccc(C(O)(c3ccc(C)nc3C)c3cnnn3C)cc2c(Cl)c1CC(C)C` (centres undefined), inhibition in assay [2] was half-maximal at 0.844 µM (IC50). For the same compound, in assay [3], binding was characterised by a dissociation constant (Kd) of 0.412 µM.

In assay [2], `COc1nc2ccc(C(O)(c3ccc(C)nc3C)c3cnnn3C)cc2c(Cl)c1CN1CCC(n2cccn2)CC1` (centres undefined) gave an IC50 of 0.122 µM. That is a sub-micromolar value.

For `COc1nc2ccc(C(O)(c3cnc(C)n3C)C3CCOCC3)cc2c(Cl)c1CN1CCC(C(F)(F)F)CC1` (centres undefined), in assay [3], binding was characterised by a dissociation constant (Kd) of 0.0006 µM. With `COc1nc2ccc([C@@](O)(c3ccc(C(F)(F)F)nc3)c3cncn3C)cc2c(Cl)c1CN1CCC(C(F)(F)F)CC1`, the values for the half-inhibitory concentration (IC50) in assay [4] and in assay [2] were 0.017 µM and 0.061 µM, respectively. Also, in assay [3], the Kd (commonly the constant that tells how readily two partners part at equilibrium) is 0.0011 µM. Compound `COc1nc2ccc(C(O)(c3ccc(C)nc3C)c3cnnn3C)cc2c(Cl)c1CC1CC1` (centres undefined) had an IC50 in assay [2] of 0.03 µM. That is a double-digit nanomolar value.

These data come from ChEMBL document CHEMBL4340540, “3-Substituted Quinolines as RORγt Inverse Agonists” (Bioorg Med Chem Lett, 2019).
